The record followed here is patent publication US12637430B2, “Interleukin-17 (IL-17) inhibitors” (priority 2020, dated 2026).

The chains behind the UniProt entries cited, without tags or fusion partners. Residues count along the entry.
UniProt Q16552, 20-155 limits assumed: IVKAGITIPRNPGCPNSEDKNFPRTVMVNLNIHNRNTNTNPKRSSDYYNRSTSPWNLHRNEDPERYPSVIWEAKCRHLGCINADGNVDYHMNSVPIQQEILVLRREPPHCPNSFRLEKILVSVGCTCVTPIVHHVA
UniProt Q16552, 24-155 limits assumed: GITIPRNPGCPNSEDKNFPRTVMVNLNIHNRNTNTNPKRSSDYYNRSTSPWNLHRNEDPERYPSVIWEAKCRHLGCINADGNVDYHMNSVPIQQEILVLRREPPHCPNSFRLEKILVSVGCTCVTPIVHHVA

Assay [1] deals with T1, human IL-17A (Homo sapiens, UniProt Q16552). As to the kind of experiment: IL-17A enzyme-linked immunosorbent assay (competitive ELISA, IL-17A/IL-17R binding). The note with it: read-out: ELISA IC50, IL-17A coated, 16 nM IL-17R. The procedure: The inhibition of receptor-ligand binding by human IL-17A inhibitors was quantified by competitive ELISA. 0.2 μg/mL of IL-17A (Sino Biological Inc. Cat #12047-H07B) was added in a 96-well plate at 100 μl per well for incubation for 30 min under 37° C. The 96-well plate was washed with PBST (PBS, 0.05% Tween-20) at 200 μl per well for 4 times, and then added with 200 μl of 5% skim milk and placed on a shaker for incubation at 25° C. for 30 min. The compound to be tested was prepared at 100× concentration ranging from 0.003 μM to 30 μM. After washed with PBST (PBS, 0.05% Tween-20) 4 times, the plate was added with 89 μl of PBST and 1 μl of the compound to be tested at 100× concentration followed by uniformly mixing and pre-incubation at 25° C. for 10 min. Then the plate was added with 10 μl of 16 nM IL-17R, and incubated on a shaker at 25° C. for 30 min. After washed for 4 times, the plate was added with 100 μl of anti-Fc-tag horseradish peroxidase (HRP)-conjugated antibody, and incubated on a shaker at 25° C. for 30 min. After washed 4 times, the plate was added with 100 μl of 3,3′, 5,5″-tetramethylbenzidine (TMB) substrate solution, and incubated at 25° C. in the dark. Then the plate was added with 20% HCl, followed by detection of the light absorption value at a wavelength of 450 nm by a microplate reader. […]

Assay [2] concerns the target T1, human IL-17A. Description: Inhibition of chemokine GROα/CXCL1 generation induced by human IL-17A protein in HT-29 cell. The format is cell-based. Conditions: read-out: HT-29 IC50; GROα/CXCL1 in HT-29 supernatant, 30 ng/mL human IL-17A, 48 hours. The protocol:
HT-29 (Zhongyuan Gongchuang Technology Co., Ltd. of Chengdu, Sichuan) was added to a 96-well plate at 5×10^4 cells/well, and cultured overnight in a incubator at 37° C. A mixture of 30 ng/mL of human IL-17A protein (R&D, #317-ILB) and IL-17A small molecule inhibitors with gradient concentrations or 0.3 μg/mL of positive control IL-17A antibody (R&D, #AF-317-NA) was incubated at 37° C. for 1 h, and then added to the above-mentioned 96-well plate, and incubated with HT-29 cells at 37° C. for 48 hours. Then the GROα level in the cell culture supernatant was detected by an ELISA kit (Cisbio, #62HCXC1PEG) of the GROα.
According to the methods described in Experimental Examples 1 and 2, the compounds prepared in the above-mentioned examples were subjected to the experiment on inhibition of chemokine GROα/CXCL1 generation induced by human IL-17A protein in HT-29 cell.

Consider `CCn1nccc1C(=O)N[C@H](C(=O)Nc1cnc(-c2c(C)n[nH]c2C)c(F)c1)C(C1CC1)C1(C)CC1` (stereo partly shown), for which the IC50 on human IL-17A [1] came out at 26 nM; on human IL-17A [2], 203 nM.

As to `Cn1nccc1C(=O)N[C@H](C(=O)Nc1ccc(C2CCOCC2)nc1)[C@H](c1ccccc1Cl)C1(C)CC1`, the IC50 on human IL-17A [1] amounted to 7 nM; at human IL-17A [2], 2000 nM.
